Our source for the Kd and Ki values is ChEMBL document CHEMBL1148343, “Fragment-based drug discovery” (J Med Chem, 2004).

One experiment deals with T1, Acetylcholinesterase (Mus musculus, UniProt P21836).
T1 sequence (P21836 whole entry): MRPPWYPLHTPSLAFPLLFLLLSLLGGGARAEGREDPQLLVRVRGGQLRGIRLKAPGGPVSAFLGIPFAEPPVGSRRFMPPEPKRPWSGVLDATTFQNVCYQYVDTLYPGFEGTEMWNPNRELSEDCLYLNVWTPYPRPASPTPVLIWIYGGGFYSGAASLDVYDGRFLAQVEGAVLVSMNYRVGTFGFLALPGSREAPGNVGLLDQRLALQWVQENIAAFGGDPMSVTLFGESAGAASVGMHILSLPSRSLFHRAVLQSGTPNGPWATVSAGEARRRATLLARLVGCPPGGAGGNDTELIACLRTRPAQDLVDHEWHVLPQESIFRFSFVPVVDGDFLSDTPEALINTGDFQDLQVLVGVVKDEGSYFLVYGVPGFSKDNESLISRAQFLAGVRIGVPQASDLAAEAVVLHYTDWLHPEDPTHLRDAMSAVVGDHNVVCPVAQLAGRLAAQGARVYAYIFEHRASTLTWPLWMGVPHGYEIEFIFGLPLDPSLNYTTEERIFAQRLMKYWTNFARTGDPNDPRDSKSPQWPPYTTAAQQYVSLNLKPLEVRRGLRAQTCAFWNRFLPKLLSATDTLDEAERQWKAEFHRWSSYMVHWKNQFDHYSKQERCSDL

Experiment [1] concerns the target T2, Tyrosine-protein phosphatase non-receptor type 1 (Homo sapiens, UniProt P18031).
T2 sequence (P18031 whole entry): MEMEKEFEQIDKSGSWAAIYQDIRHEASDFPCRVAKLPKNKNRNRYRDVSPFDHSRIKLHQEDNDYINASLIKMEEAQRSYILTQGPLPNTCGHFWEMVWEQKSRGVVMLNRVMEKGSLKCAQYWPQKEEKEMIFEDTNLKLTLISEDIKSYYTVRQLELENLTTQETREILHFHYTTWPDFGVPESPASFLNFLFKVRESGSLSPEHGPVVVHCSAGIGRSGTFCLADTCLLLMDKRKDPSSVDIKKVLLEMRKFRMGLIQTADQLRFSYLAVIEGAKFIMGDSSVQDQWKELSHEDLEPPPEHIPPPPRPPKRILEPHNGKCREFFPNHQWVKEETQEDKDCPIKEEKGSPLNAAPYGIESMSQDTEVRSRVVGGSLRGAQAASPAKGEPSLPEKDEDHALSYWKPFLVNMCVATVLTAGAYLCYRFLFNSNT

Each structure is given as a SMILES string.

In general, Kd refers to the free concentration of one partner at which half of the binding sites on the other are occupied at equilibrium, for simple one-to-one binding. `Nc1ccc2c(c1)c(-c1ccccc1)[n+](CCCCCCc1cnnn1CCNc1c3c(nc4ccccc14)CCCC3)c1cc(N)ccc21` yielded a Kd on Acetylcholinesterase of 0.00041 nM. Usually Ki stands for a measure of affinity in units of concentration, obtained from inhibition or displacement. In turn, `CC(=O)NC(Cc1ccc(N(C(=O)C(=O)O)c2ccccc2C(=O)O)c2ccccc12)C(=O)NCCCCCOc1cc2ccccc2cc1C(=O)O` (configuration not stated) yielded a Ki in experiment [1] of 22 nM.
